Literature values, collected in patent US20020193351A1, “Fungicidal and bactericidal compositions for plants containing phosphonate and phosphate salts, metal chelates, and derivatives thereof” (priority 1996, published 2002).

Tested on: plants
Conditions: foliar applications; cited from earlier work

Q: Which “Phytotoxicity rankings of Fe chelates” value does the source give for “iron ethylenediamine-di-o-hydroxyphenylacetic acid [Fe-EDDHA]” here?
A: least phytotoxic
